Biological target: CDK8/Cyclin C (Homo sapiens, UniProt P49336)
Assay: Inhibition of full length N-terminal GST/His6-tagged human CDK8 (M1 to Y463 residues)/N-terminal His6-tagged Cyc C (M1 to S283 residues) expressed in Sf9 insect cells at 1 uM using RBER-IRStide as substrate by filter binding assay

Amino acid sequences for entries named in this document (tags omitted). A change or cut given only in a name is not applied to a line headed by its entry.
UniProt P49336: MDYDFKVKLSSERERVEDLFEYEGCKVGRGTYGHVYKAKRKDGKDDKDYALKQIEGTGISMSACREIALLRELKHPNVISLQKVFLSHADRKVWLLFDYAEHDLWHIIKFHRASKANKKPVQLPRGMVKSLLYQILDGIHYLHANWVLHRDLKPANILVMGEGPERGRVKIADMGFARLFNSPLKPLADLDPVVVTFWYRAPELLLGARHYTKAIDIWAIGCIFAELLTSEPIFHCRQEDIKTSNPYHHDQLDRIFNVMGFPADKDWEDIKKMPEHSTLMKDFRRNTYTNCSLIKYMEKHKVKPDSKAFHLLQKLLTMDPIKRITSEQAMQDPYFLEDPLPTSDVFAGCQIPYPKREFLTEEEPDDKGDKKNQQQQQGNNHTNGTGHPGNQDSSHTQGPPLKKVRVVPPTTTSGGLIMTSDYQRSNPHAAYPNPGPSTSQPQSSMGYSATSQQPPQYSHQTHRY

IC50: 24 to 50 nM
SMILES: CN1CCN(C(=O)c2ccc3cc(CCNc4ncnc5ccc(C#N)cc45)ccc3c2)CC1 [SENEXIN B]

Source: ChEMBL document CHEMBL4028808, “Design and synthesis of selective CDK8/19 dual inhibitors: Discovery of 4,5-dihydrothieno[3',4':3,4]benzo[1,2-d]isothiazole derivatives” (Bioorg Med Chem, 2017)
